Measurements published in article PMC4257840 (Journal of Medicinal Chemistry, 2014).

Target: T1, Der p 1 (Dermatophagoides pteronyssinus, UniProt P08176)
T1 sequence (P08176 99-320): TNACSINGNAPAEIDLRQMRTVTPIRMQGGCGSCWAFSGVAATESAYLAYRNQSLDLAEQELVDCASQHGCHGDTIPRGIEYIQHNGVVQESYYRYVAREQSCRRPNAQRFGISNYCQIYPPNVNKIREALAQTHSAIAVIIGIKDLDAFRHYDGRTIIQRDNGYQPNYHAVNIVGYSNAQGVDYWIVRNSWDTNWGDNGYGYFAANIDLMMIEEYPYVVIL
Type: biochemical
Conditions: mean ± SE

CC(C)[C@H](NC(=O)[C@H](C)NC(=O)[C@@H](NC(=O)C1CC[N+](C)(C)CC1)C(C)(C)C)C(=O)C(=O)NCc1ccccc1.O=C[O-] [Compound 32, 4-{(S)-1-[(S)-1-((S)-1-Benzylaminooxalyl-2-methyl-propylcarbamoyl)-ethylcarbamoyl]-2,2-dimethyl-propylcarbamoyl}-1,1-dimethyl-piperidinium Formate]
IC50: 6 ± 1 nM

CC(C)[C@H](NC(=O)[C@H](C)NC(=O)[C@H](Cc1ccccc1)NC(=O)c1ccccc1)C(=O)C(=O)NCC(=O)N1CC[N+](C)(C)CC1.O=C[O-] [Compound 52, 4-(2-{(S)-3-[(S)-2-((S)-2-Benzoylamino-3-phenyl-propionylamino)-propionylamino]-4-methyl-2-oxo-pentanoylamino}-acetyl)-1,1-dimethyl-piperazin-1-ium Formate]
IC50: 17 ± 2 nM
